# Source: ChEMBL document CHEMBL1800071, “Switching reversibility to irreversibility in glycogen synthase kinase 3 inhibitors: clues for specific design of new compounds” (J Med Chem, 2011)
# Amino acid sequences for entries named in this document (tags omitted). A change or cut given only in a name is not applied to a line headed by its entry.
# UniProt P49841: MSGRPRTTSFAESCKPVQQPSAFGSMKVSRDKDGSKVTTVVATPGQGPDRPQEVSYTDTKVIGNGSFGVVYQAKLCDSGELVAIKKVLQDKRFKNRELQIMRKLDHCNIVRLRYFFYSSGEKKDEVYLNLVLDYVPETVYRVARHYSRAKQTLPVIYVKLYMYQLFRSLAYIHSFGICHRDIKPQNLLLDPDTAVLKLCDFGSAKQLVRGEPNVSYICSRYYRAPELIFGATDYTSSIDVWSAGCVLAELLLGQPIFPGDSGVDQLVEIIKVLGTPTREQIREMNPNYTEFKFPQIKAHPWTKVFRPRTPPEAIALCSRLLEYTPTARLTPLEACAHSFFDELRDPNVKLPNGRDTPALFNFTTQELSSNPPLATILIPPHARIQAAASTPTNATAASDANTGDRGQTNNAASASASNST
# Biological target: Glycogen synthase kinase-3 beta (Homo sapiens, UniProt P49841)
row,Structure (SMILES),IC50
1,O=C(CI)c1ccc(Br)cc1,3000 nM
2,N#Cc1ccc(C(=O)CBr)cc1,1500 nM
3,N#Cc1cccc(C(=O)CBr)c1,1000 nM
